From paper PMC8949525, “Essential Elements and Isoflavonoids in the Prevention of Prostate Cancer” (Nutrients, 2022)
Where two headings read alike, the source gives them in different places.

Assays:
[1] = system: S. typhimurium TA1535/pSK1002; details: 4NQO 0.05 mg/L, −S9; daidzein or equol 10 μM with or without mineral (Table 3); NQO line = genotoxin alone
Protocol: (§1) The umu-test detects the induction of bacterial DNA-damage response, the SOS system, in the strain S. typhimurium TA1535/pSK1002. The test strain carries pSK1002 plasmid, which contains the fusion of umuC, encoding one of SOS response proteins, and lacZ genes. The expression of β-galactosidase protein is fully controlled by umuC gene.
(§2) In the present study, the umu-test was performed in the micro-plate format according to the ISO guideline. The β-galactosidase activity was determined by the degree of ONPG cleavage measured as sample absorbance at 420 nm. The extent of SOS system activation was presented as induction ratio (IR), calculated as the ratio of β-galactosidase activity in the presence of the tested compound(s) to that of negative control. […] The optical density at 600 nm was used to describe the bacteria growth. […] Both measurements were performed with Asys UVM340 Hightech microplate spectrophotometer.
(§3) In order to the establish anti-genotoxic potential of tested compounds, their effects on the action of two model genotoxic agents, 4NQO without the metabolic activation with rat liver S9 fraction and 2AA with metabolic activation, were evaluated. […] Subsequently, the modulation of 4NQO and 2AA genotoxicity by the isoflavones, the elements and their mixtures in previously used concentrations was investigated.

[2] = system: S. typhimurium TA1535/pSK1002; details: +S9
Protocol: as §1, §2
The S9 fraction from rat liver was used for metabolic activation of the tested compounds and the model mutagen. […] The P450 cytochrome level in the isolate was evaluated and the aliquots were stored at −80 °C. The S9 reaction mix was prepared as described by Maron and Ames.
as §3

[3] = isoflavone 10 μM, minerals Zn 0.5, Se 0.03, Cu 0.5, Fe 1.5, Ca 40 μg/mL

| Structure (SMILES) | G (growth ratio) [1] | G (growth ratio) ([2]; 2AA 5 mg/L, daidzein or equol 10 μM with or without mineral (Table 6), 2AA line = genotoxin alone) | G (growth ratio) [2, 3] | G (growth ratio) ([2]; 2AA 1 mg/L, genistein 10 μM and/or mineral added (Table 5), 2AA line = genotoxin alone) |
| --- | --- | --- | --- | --- |
| Oc1ccc([C@H]2COc3cc(O)ccc3C2)cc1 [eq, equol] | 1.06 ± 0.27 | 1.03 ± 0.09 | 1.06 ± 0.09 | – |
| O=[Se](=O)([O-])[O-].[Na+].[Na+] [Se, sodium selenate] | – | – | 1.09 ± 0.13 | – |
| [Ca+2].[Cl-].[Cl-] [Ca, calcium chloride] | – | – | 1.09 ± 0.15 | 1.16 ± 0.10 |
